Source: patent EP4831176A1, “BICYCLIC FUSED HETEROAROMATIC RING DERIVATIVE, AND PHARMACEUTICAL COMPOSITION AND USE THEREOF” (dated 2026)
pIC50: −log10 of the molar value.

Amino acid sequences for entries named in this document (tags omitted).
UniProt O75530, whole entry: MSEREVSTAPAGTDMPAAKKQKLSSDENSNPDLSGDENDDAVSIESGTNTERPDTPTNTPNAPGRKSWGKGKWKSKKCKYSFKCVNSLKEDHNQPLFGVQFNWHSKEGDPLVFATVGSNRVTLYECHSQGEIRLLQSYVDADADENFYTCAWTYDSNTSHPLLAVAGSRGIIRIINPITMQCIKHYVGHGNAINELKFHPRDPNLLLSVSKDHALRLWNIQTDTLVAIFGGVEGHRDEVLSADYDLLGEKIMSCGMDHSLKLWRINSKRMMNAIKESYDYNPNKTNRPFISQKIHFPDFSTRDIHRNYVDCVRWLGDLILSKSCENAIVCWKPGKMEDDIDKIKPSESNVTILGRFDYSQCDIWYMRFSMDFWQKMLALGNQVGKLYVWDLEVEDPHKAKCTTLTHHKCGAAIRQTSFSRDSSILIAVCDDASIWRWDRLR

Key:
Pfeiffer cells = assay: Proliferation inhibition of Pfeiffer tumor cells, Cell Titer-Glo; conditions: read-out: CTG IC50, 144 hours incubation
From the text: In this experiment, Cell Titer-Glo reagent was used to quantitatively analyze the proliferation activity of Pfeiffer cells to detect the inhibitory ability of the compounds on tumor cell proliferation. The specific steps were as follows: • 1. Pfeiffer cells were purchased from Nanjing Cobioer (purchased from ATCC, Catalog No. #CRL2632), subcultured and maintained in logarithmic growth state using RPMI-1640 complete medium (containing 10% v/v fetal bovine serum) according to the supplier's recommended conditions. […] Before cell seeding, cells were collected in a centrifuge tube, centrifuged at 250 rcf for 3 minutes, and the culture medium was discarded. The cells were resuspended in fresh complete medium, and 20 µL of the cell suspension was taken to calculate the cell concentration using a Countstar cell counter. After adjusting the density, cells were seeded into a 384-well plate at 2,000 cells/45 µL and pre-incubated in a 37°C, 5% CO2 incubator for 4 hours. • 3. The negative and positive control groups were treated with 5 µL of control solution (non-complete medium containing 1% v/v DMSO). Compound gradient dilutions were prepared using non-complete medium, and 5 µL of the dilutions were added to the corresponding culture wells. The final concentration of DMSO in the test was 0.1% v/v. Subsequently, the plate was incubated in a 37°C, 5% CO2 incubator for 144 hours. • 4. 40 µL of Cell Titer-Glo reagent was added directly to the cell culture, and the plate was incubated at room temperature in the dark for 30 minutes. The luminescence value was then read on a plate reader, and the results were used to analyze the cell proliferation ratio and compound activity. • 5. The signal value of the negative control group was set as Bottom, and the signal value of the positive control group was set as Top. The compound concentration value (logarithm) was the X-axis, and the luminescence reading at the corresponding concentration was the Y-axis, with HillSlope as the slope factor. A four-parameter logistic model (4PL logistic model) was used for fitting, and the calculation method was as follows:Y = Bottom + (Top - Bottom) / (1 + 10^((Log IC50 - X) × HillSlope))
After fitting, the IC50 value of the compound was calculated, and the proliferation inhibitory activity of the compound was compared based on the IC50 value.

EED protein = EED protein (Homo sapiens, UniProt O75530); assay: EED protein degradation in Karpas-422 cells, In-cell western (ICW); conditions: 18 hours incubation
From the text: In this experiment, In-cell western (ICW) method was used to quantitatively analyze the EED protein expression level in Karpas-422 cells to detect the degradation activity of the compounds on the target protein. The specific steps were as follows: • 1. Karpas-422 cells were purchased from Nanjing Cobioer (Catalog No. CBP60629), subcultured and maintained in logarithmic growth state using RPMI-1640 complete medium (containing 10% v/v fetal bovine serum) according to the supplier's recommended conditions. […] One day before cell seeding, a 384-well plate was coated with 30 µL of coating buffer (phosphate buffered saline containing 30 µg/mL poly-D-lysine) at room temperature for 2 hours. The coating solution was then discarded, and the plate was washed once with 90 µL of phosphate buffered saline, which was then discarded. The plate was allowed to air dry naturally in a clean bench, wrapped around the edges with Parafilm to prevent moisture, and stored in a 4°C refrigerator until use. • 3. Before cell seeding, cells were collected in a centrifuge tube, centrifuged at 250 rcf for 3 minutes, and the culture medium was discarded. The cells were resuspended in fresh complete medium, and 20 µL of the cell suspension was taken to calculate the cell concentration using a Countstar cell counter. After adjusting the density, cells were seeded into the prepared coated plate at 15,000 cells/45 µL and pre-incubated in a 37°C, 5% CO2 incubator for 4 hours. • 4. The negative and positive control groups were treated with 5 µL of control solution (serum-free medium containing 1% v/v DMSO). Compound gradient dilutions were prepared using the control solution, and 5 µL of the dilutions were added to the corresponding culture wells. The final concentration of DMSO in the test was 0.1% v/v. Subsequently, the plate was incubated in a 37°C, 5% CO2 incubator for 18 hours. • 5. The culture plate was removed, and cells were fixed by directly adding 10 µL of fixative solution (phosphate buffered saline containing 3% v/v glutaraldehyde) to the cells and incubating at room temperature for 30 minutes. The liquid was discarded. Subsequently, cells were treated with 30 µL of permeabilization staining solution (phosphate buffered saline containing 0.1% v/v Triton X-100 and 20 µg/mL Hoechst 33342) at room temperature for 30 minutes. The permeabilization solution was discarded, and the fluorescence value (excitation at 360 nm, emission at 460 nm) was read on a microplate reader. • 6. 50 µL of repair solution (50 mM citric acid buffer) was added to all wells, and the plate was incubated at 70°C for 2 hours on a constant temperature incubation shaker. The microplate was then removed, equilibrated to room temperature, and the liquid was discarded. • 7. A sufficient amount of antibody dilution buffer (Tris Buffered Saline-Tween solution containing 1% w/v bovine serum albumin) was prepared and stored in a 4°C refrigerator until use. • 8. Primary antibody dilution (EED antibody diluted 1:1000 with antibody dilution buffer) was prepared. 30 µL of antibody dilution buffer without antibody was added to the negative control group. 30 µL of the primary antibody dilution was added to the cells in the other groups, and the plate was incubated overnight at 4°C. • 9. The primary antibody dilution was discarded. The plate was washed 3 times with 90 µL of Tris Buffered Saline-Tween solution, and the wash solution was discarded. Secondary antibody dilution (HRP-linked antibody diluted 1:500 with antibody dilution buffer) was prepared, and 30 µL was added to the cells. The plate was incubated at room temperature for 2 hours. • 10. The secondary antibody dilution was discarded. The plate was washed 3 times with 90 µL of Tris Buffered Saline-Tween solution, and the wash solution was discarded. 30 µL of TMB substrate solution was added, and the plate was incubated at room temperature in the dark for 15 minutes. Then, 30 µL of stop solution (2 M sulfuric acid) was added to terminate the reaction. […]

SMILES | pIC50 (Pfeiffer cells) | Dmax (EED protein) [%]
Cn1nc(C2CCC(=O)NC2=O)c2ccc(N3CC4(CC(CN5CCC(n6cnc(-c7cnc(NCc8c(F)ccc9c8CCO9)n8cnc(Cl)c78)n6)CC5)C4)C3)cc21 (stereo not shown) | 9.77 | 51
Cn1nc(C2CCC(=O)NC2=O)c2ccc(N3CCC(CN4CCC(n5cnc(-c6cnc(NCc7c(F)ccc8c7CCO8)n7cnc(F)c67)n5)CC4)CC3)cc21 (stereo not shown) | 9.96 | 54
Cn1nc(C2CCC(=O)NC2=O)c2ccc(N3CCC(CN4CCC(c5ccc(-c6cnc(NCc7c(F)ccc8c7CCO8)c7nncn67)cc5)CC4)CC3)cc21 (stereo not shown) | 8.52 | 66
Cn1nc(C2CCC(=O)NC2=O)c2ccc(N3CCC(CN4CCC(c5ccc(-c6cnc(NCc7c(F)ccc8c7CCO8)n7cnc(Cl)c67)cn5)CC4)CC3)cc21 (stereo not shown) | 9.30 | 70
O=C1CCC(Nc2ccc(N3CCN(C4CCN(Cc5ccc(-c6cnc(NCc7c(F)ccc8c7CCO8)n7cnnc67)cc5)CC4(F)F)CC3)c(F)c2)C(=O)N1 (stereo not shown) | 7.52 | 30
Cn1nc(C2CCC(=O)NC2=O)c2ccc(N3CCC(CN4CCC(c5ccc(-c6cnc(NCc7c(F)ccc8c7CCO8)n7cnc(Br)c67)cc5)CC4)CC3)cc21 (stereo not shown) | 8.66 | 61
Cn1nc(C2CCC(=O)NC2=O)c2ccc(N3CCC(F)(CN4CCC(n5cc(-c6cnc(NCc7c(F)ccc8c7CCO8)n7cnc(Cl)c67)cn5)CC4)CC3)cc21 (stereo not shown) | 8.15 | 51
Cn1c(=O)n(C2CCC(=O)NC2=O)c2ccc(N3CCC(NC(=O)c4ccc(-c5cnc(NCc6c(F)ccc7c6CCO7)n6cnc(Cl)c56)cc4)C(F)(F)C3)cc21 (stereo not shown) | 8.57 | 57
Cn1nc(C2CCC(=O)NC2=O)c2ccc(N3CCC(CN4CCC(c5cc(-c6cnc(NCc7c(F)ccc8c7CCO8)n7cnc(Cl)c67)on5)CC4)CC3)cc21 (stereo not shown) | 9.92 | 64
Cn1nc(N2CCC(=O)NC2=O)c2ccc(N3CCC(CN4CCC(n5cc(-c6cnc(NCc7c(F)ccc8c7CCO8)n7cnc(Cl)c67)cn5)CC4)CC3)cc21 | 8.10 | 41
Cn1nc(C2CCC(=O)NC2=O)c2ccc(N3CCC(CN4CCC(n5cc(-c6cnc(NCc7c(F)ccc8c7CCO8)n7cnnc67)nn5)CC4)CC3)cc21 (stereo not shown) | 10.22 | 58
Cn1c(=O)n(C2CCC(=O)NC2=O)c2ccc(N3CCC(CN4CCC(n5cc(-c6cnc(NCc7c(F)ccc8c7CCO8)n7cnc(Cl)c67)cn5)CC4)CC3)cc21 (stereo not shown) | 10.00 | 67
Cn1nc(C2CCC(=O)NC2=O)c2ccc(N3CCC(CN4CCC(c5ccc(-c6cnc(NCc7c(F)ccc8c7CCO8)n7cnnc67)cn5)CC4)CC3)cc21 (stereo not shown) | 9.05 | 67
Cn1nc(C2CCC(=O)NC2=O)c2ccc(N3CCC(CN4CCC(n5ncc(-c6cnc(NCc7c(F)ccc8c7CCO8)n7cnc(Cl)c67)n5)CC4)CC3)cc21 (stereo not shown) | 9.57 | 66
Cn1nc(C2CCC(=O)NC2=O)c2ccc(N3CCC(N4CCC(n5cc(-c6cnc(NCc7c(F)ccc8c7CCO8)n7cnc(Cl)c67)cn5)CC4)CC3)cc21 (stereo not shown) | 9.10 | 54
Cn1nc(C2CCC(=O)NC2=O)c2ccc(N3CC4(CC(CN5CCC(n6cc(-c7cnc(NCc8c(F)ccc9c8CCO9)n8cnc(Cl)c78)nn6)CC5)C4)C3)cc21 (stereo not shown) | 10.15 | 56
Cn1c(=O)n(C2CCC(=O)NC2=O)c2ccc(N3CCC(CN4CCC(c5ccc(-c6cnc(NCc7c(F)ccc8c7CCO8)n7cnnc67)cc5)CC4)CC3)cc21 (stereo not shown) | 8.70 | 70
Cc1nc(C2CCN(CC3CCN(c4ccc5c(c4)n(C)c(=O)n5C4CCC(=O)NC4=O)CC3)CC2)ccc1-c1cnc(NCc2c(F)ccc3c2CCO3)n(C)c1=O (stereo not shown) | 7.55 | 61
Cc1cc(CN2CCC(N3CCN(c4ccc(NC5CCC(=O)NC5=O)cc4F)CC3)C(F)(F)C2)ccc1-c1cnc(NCc2c(F)ccc3c2CCO3)n2cnnc12 (stereo not shown) | 7.08 | 23
Cn1nc(C2CCC(=O)NC2=O)c2cnc(N3CCC(CN4CCC(n5cc(-c6cnc(NCc7c(F)ccc8c7CCO8)n7cnc(Cl)c67)cn5)CC4)CC3)cc21 (stereo not shown) | 9.40 | 55
Cc1cc(C2CCN(CC3CCN(c4ccc5c(C6CCC(=O)NC6=O)nn(C)c5c4)CC3)CC2)ccc1-c1cnc(NCc2c(F)ccc3c2CCO3)n2cnnc12 (stereo not shown) | 9.00 | 70
Cn1nc(C2CCC(=O)NC2=O)c2ccc(N3CCC(CN4CCC(c5ccc(-c6cnc(NCc7c(F)ccc8c7CCO8)n7cncc67)cc5)CC4)CC3)cc21 (stereo not shown) | 8.85 | 64
Cn1nc(C2CCC(=O)NC2=O)c2ccc(N3CCC(CN4CCC(c5ccc(-c6cnc(NCc7c(F)ccc8c7CCO8)n7cnnc67)nc5)CC4)CC3)cc21 (stereo not shown) | > 10.52 | 66
O=C1CCC(Nc2ccc(N3CCC(CN4CCC(n5cc(-c6cnc(NCc7c(F)ccc8c7CCO8)n7cnc(Cl)c67)cn5)CC4)CC3)c(F)c2)C(=O)N1 (stereo not shown) | 7.66 | 49
Cn1c(=O)n(C2CCC(=O)NC2=O)c2ccc(N3CCC(CN4CCC(n5cnc(-c6cnc(NCc7c(F)ccc8c7CCO8)n7cnc(Cl)c67)n5)CC4)CC3)cc21 (stereo not shown) | 9.82 | 56
Cn1nc(C2CCC(=O)NC2=O)c2ccc(N3CCC(CN4CCC(c5ncc(-c6cnc(NCc7c(F)ccc8c7CCO8)n7cnnc67)cn5)CC4)CC3)cc21 (stereo not shown) | 8.30 | 75
Cn1nc(C2CCN(CC3CCN(c4ccc5c(C6CCC(=O)NC6=O)nn(C)c5c4)CC3)CC2)cc1-c1cnc(NCc2c(F)ccc3c2CCO3)n2cnc(Cl)c12 (stereo not shown) | 8.70 | 59
Cn1nc(C2CCC(=O)NC2=O)c2ccc(N3CC4(CC(CN5CCC(c6ccc(-c7cnc(NCc8c(F)ccc9c8CCO9)n8cnnc78)cc6)CC5)C4)C3)cc21 (stereo not shown) | 10.15 | 59
Cn1nc(C2CCC(=O)NC2=O)c2ccc(N3CCC(CN4CCC(n5ccc(-c6cnc(NCc7c(F)ccc8c7CCO8)n7cnc(Cl)c67)n5)CC4)CC3)cc21 (stereo not shown) | 6.87 | 33
